Article doi:10.1101/2024.09.21.614250 (bioRxiv, 2024)

Molecular target: T1, huPDL2^ECD-huFc (human, UniProt Q9BQ51 20-220)
T1 sequence: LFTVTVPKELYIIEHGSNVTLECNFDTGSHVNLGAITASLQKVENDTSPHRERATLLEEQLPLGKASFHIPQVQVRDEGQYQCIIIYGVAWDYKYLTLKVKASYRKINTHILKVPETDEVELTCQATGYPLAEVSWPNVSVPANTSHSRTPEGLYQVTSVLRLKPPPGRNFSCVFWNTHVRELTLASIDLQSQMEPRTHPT
Experiment: BLI

fold higher affinity (Kd) than the mouse PD1:PDL2 pair: 24 fold
B1: huPD1^ECD-His (domain or fragment)
chain: LDSPDRPWNPPTFSPALLVVTEGDNATFTCSFSNTSESFVLNWYRMSPSNQTDKLAAFPEDRSQPGQDCRFRVTQLPNGRDFHMSVVRARRNDSGTYLCGAISLAPKAQIKESLRAELRVTERRAEVPTAHPSPSPRPAGQFQTLV
